# Values of other authors, collected in article PMC9046186, “A distinctive ligand recognition mechanism by the human vasoactive intestinal polypeptide receptor 2” (Nature Communications, 2022).
# Target: T1, PAC1R (Homo sapiens, UniProt P41586)
# T1 construct: expressed in transfected cells; host or cells: CHO-K1
# T1 sequence (P41586 21-468): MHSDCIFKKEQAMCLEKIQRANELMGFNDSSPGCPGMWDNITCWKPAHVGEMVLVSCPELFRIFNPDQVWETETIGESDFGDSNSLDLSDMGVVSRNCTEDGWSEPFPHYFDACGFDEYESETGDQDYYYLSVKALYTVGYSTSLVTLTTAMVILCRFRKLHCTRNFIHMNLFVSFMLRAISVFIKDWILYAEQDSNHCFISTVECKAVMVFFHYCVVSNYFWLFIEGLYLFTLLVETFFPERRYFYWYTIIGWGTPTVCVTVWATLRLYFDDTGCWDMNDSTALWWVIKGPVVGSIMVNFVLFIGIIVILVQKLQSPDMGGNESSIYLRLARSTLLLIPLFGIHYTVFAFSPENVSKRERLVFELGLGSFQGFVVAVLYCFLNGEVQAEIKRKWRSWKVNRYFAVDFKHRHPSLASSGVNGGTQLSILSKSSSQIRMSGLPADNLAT
# Details: more potent than VIP; introduction, Fig. 1a, b; no reference given
substance,measurement,value
pituitary adenylate cyclase-activating polypeptide [PACAP38],potency relative to VIP at PAC1R,50 to 400 fold
